{
  "sequences": {"note": "The chains behind the UniProt entries cited, without tags or fusion partners.", "UniProt P09923, whole entry": "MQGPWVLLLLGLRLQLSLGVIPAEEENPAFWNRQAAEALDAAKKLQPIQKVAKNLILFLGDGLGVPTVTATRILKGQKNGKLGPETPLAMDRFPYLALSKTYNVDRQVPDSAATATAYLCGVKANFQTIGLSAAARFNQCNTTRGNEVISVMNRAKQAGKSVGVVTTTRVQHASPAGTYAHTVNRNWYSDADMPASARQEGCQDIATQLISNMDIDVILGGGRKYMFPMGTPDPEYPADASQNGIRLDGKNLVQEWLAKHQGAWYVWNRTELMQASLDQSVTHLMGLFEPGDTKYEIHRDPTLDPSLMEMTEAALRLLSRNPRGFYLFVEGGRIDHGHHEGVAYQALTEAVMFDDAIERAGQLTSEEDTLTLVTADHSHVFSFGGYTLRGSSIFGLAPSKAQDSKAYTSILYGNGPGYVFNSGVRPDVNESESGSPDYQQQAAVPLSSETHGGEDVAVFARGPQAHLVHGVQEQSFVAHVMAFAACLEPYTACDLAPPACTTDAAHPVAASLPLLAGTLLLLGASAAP"},
  "source": "PubChem BioAssay AID2524",
  "about": "(Sanford-Burnham Center for Chemical Genomics, 2010)",
  "note": "The list shows a part of the results, in another mix than the full data. Some structures show a salt or complex split into parts, the way the source records it. The source made the active and inactive calls.",
  "data": [
    {"target": "Intestinal-type alkaline phosphatase (Homo sapiens) (UniProt P09923)", "assay": "human IAP activators, primary screen, biochemical, luminescence, uHTS (AID 2524)", "settings": "purified human IAP, CDP-Star luminescence, 30 min; at 10 µM; stronger effect = higher value; 1 = vehicle-only enzyme, 0 = enzyme-free background", "values": [
      {"smiles": "CP(=O)(Nc1ccccc1F)Oc1ccccc1", "note": "(centres undefined)", "activation factor": "inactive: 0.839"},
      {"smiles": "CC(C)c1ccc(OP(C)(=O)Nc2ccc(SC(F)(F)F)cc2)cc1", "note": "(centres undefined)", "activation factor": "inactive: 1.15"},
      {"smiles": "COc1ccc2c(c1O)-c1c(O)c(OC)cc3c1[C@H](C2)[N+](C)(C)CC3.O=[N+]([O-])c1cc([N+](=O)[O-])c([O-])c([N+](=O)[O-])c1[O-]", "activation factor": "inactive: 0.844"},
      {"smiles": "O=C(OC1CN2CCC1CC2)c1ccc([N+](=O)[O-])cc1", "note": "(centres undefined)", "activation factor": "inactive: 1.19"},
      {"smiles": "O=C(OCCN1CCN(CCOCc2ccccc2)CC1)C(O)(c1ccccc1)c1ccccc1", "activation factor": "inactive: 1.08"},
      {"smiles": "CCOC(=O)c1ccc(NP(C)(=O)Oc2ccc(F)cc2)cc1", "note": "(centres undefined)", "activation factor": "inactive: 0.933"},
      {"smiles": "COc1ccc(OP(C)(=O)Nc2ccc(SC(F)(F)F)cc2)cc1", "note": "(centres undefined)", "activation factor": "inactive: 1.04"},
      {"smiles": "CP(=O)(Nc1ccccc1)Oc1ccc(F)cc1", "note": "(centres undefined)", "activation factor": "inactive: 0.974"},
      {"smiles": "CCCCCOc1ccc(NP(C)(=O)Oc2ccc(Cl)cc2Cl)cc1", "note": "(centres undefined)", "activation factor": "inactive: 1.18"},
      {"smiles": "O=[N+]([O-])c1cc([N+](=O)[O-])c(OC2CCCCC2O)c([N+](=O)[O-])c1", "note": "(centres undefined)", "activation factor": "inactive: 0.999"},
      {"smiles": "CCN(CC)CCCOC(=O)C(O)(c1ccccc1)C1CCCCC1", "note": "(centres undefined)", "activation factor": "inactive: 1"},
      {"smiles": "CN(C)CCOC(=O)C(O)(c1ccccc1)C1CCCCC1", "note": "(centres undefined)", "activation factor": "inactive: 1"},
      {"smiles": "COc1ccc(NP(C)(=O)Oc2ccccc2OC)cc1", "note": "(centres undefined)", "activation factor": "inactive: 1.14"},
      {"smiles": "COc1ccc(OP(C)(=O)Nc2cccc(Br)c2)cc1", "note": "(centres undefined)", "activation factor": "inactive: 1.03"},
      {"smiles": "O=[N+]([O-])c1cc([N+](=O)[O-])c(NCC2CCS(=O)(=O)C2)c([N+](=O)[O-])c1", "note": "(centres undefined)", "activation factor": "inactive: 1.15"},
      {"smiles": "CCOP(C)(=S)SCC(=O)NC(C)(CC)C(=O)O", "note": "(centres undefined)", "activation factor": "inactive: 0.962"},
      {"smiles": "CP(=O)(Nc1ccc(SC(F)(F)F)cc1)Oc1ccc(F)cc1", "note": "(centres undefined)", "activation factor": "inactive: 0.982"},
      {"smiles": "Cc1ccccc1NP(C)(=O)Nc1ccccc1C", "activation factor": "inactive: 1.21"},
      {"smiles": "CP(=O)(Nc1ccc2c(c1)OCCO2)Oc1ccccc1", "note": "(centres undefined)", "activation factor": "inactive: 1.03"},
      {"smiles": "COc1ccccc1OP(C)(=O)Nc1c(C)n(C)n(-c2ccccc2)c1=O", "note": "(centres undefined)", "activation factor": "inactive: 0.974"},
      {"smiles": "O=C(OCCCN1CCCC1)C(O)(c1ccccc1)C1CCCCC1", "note": "(centres undefined)", "activation factor": "inactive: 0.941"},
      {"smiles": "CP(=O)(Oc1ccccc1)N1CCOC1=O", "note": "(centres undefined)", "activation factor": "inactive: 1.05"},
      {"smiles": "CCc1ccc(OP(C)(=O)Nc2cccnc2)cc1", "note": "(centres undefined)", "activation factor": "inactive: 1.02"},
      {"smiles": "CCN(CC)CC(O)COC(=O)C(O)(c1ccccc1)C1CCCCC1", "note": "(centres undefined)", "activation factor": "inactive: 0.829"},
      {"smiles": "COc1ccc(OP(C)(=O)Nc2ccc(Br)cc2)cc1", "note": "(centres undefined)", "activation factor": "active: 2.14"},
      {"smiles": "CN(C)C(=O)c1c([N+](=O)[O-])cc([N+](=O)[O-])cc1[N+](=O)[O-]", "activation factor": "inactive: 1.02"},
      {"smiles": "CC(C)(C)c1ccc(OP(C)(=O)O)cc1", "activation factor": "inactive: 0.867"},
      {"smiles": "COc1ccccc1OP(C)(=O)Nc1ccccc1Br", "note": "(centres undefined)", "activation factor": "inactive: 0.958"},
      {"smiles": "CP(=O)(Nc1ccc(Cl)cc1)Oc1ccc(F)cc1", "note": "(centres undefined)", "activation factor": "inactive: 0.871"},
      {"smiles": "CCOC(=O)c1ccc(NP(C)(=O)Oc2ccc(Cl)cc2)cc1", "note": "(centres undefined)", "activation factor": "inactive: 0.998"},
      {"smiles": "CP(=O)(OC12CC3CC(CC(C3)C1)C2)OC12CC3CC(CC(C3)C1)C2", "activation factor": "inactive: 1.16"},
      {"smiles": "Nc1ccc2c(ccc3cccnc32)n1.O=[N+]([O-])c1cc([N+](=O)[O-])c(O)c([N+](=O)[O-])c1", "activation factor": "inactive: 0.871"},
      {"smiles": "COc1ccccc1OP(C)(=O)Nc1ccc(C)c(C)c1", "note": "(centres undefined)", "activation factor": "inactive: 1"},
      {"smiles": "COc1ccc(OP(C)(=O)Nc2ccccc2Br)cc1", "note": "(centres undefined)", "activation factor": "inactive: 0.992"},
      {"smiles": "Cc1cc(C)cc(OP(C)(=O)Nc2cccc(C(F)(F)F)c2)c1", "note": "(centres undefined)", "activation factor": "inactive: 0.947"},
      {"smiles": "CP(=O)(OCCOc1ccccc1)OCCOc1ccccc1", "activation factor": "inactive: 0.891"},
      {"smiles": "CP(=O)(Nc1ccc(Cl)cc1Cl)Oc1ccccc1", "note": "(centres undefined)", "activation factor": "inactive: 1"},
      {"smiles": "Cc1nc2ccc3ccccc3c2o1.O=[N+]([O-])c1cc([N+](=O)[O-])c(O)c([N+](=O)[O-])c1", "activation factor": "inactive: 1.03"},
      {"smiles": "COc1ccc(OP(C)(=O)Nc2ccccn2)cc1", "note": "(centres undefined)", "activation factor": "inactive: 0.853"},
      {"smiles": "CN(C)CCOC(=O)C(O)(c1ccccc1)C1CCCC1", "note": "(centres undefined)", "activation factor": "inactive: 1.22"},
      {"smiles": "COc1ccccc1OP(C)(=O)Nc1ccc(Br)cc1", "note": "(centres undefined)", "activation factor": "inactive: 1.05"},
      {"smiles": "CP(=O)(Nc1ccccn1)Oc1ccccc1", "note": "(centres undefined)", "activation factor": "inactive: 1.02"},
      {"smiles": "COc1ccccc1OP(C)(=O)Nc1ccc(C)cc1C", "note": "(centres undefined)", "activation factor": "inactive: 1.09"},
      {"smiles": "CCc1ccc(OP(C)(=O)O)cc1", "activation factor": "inactive: 1.05"},
      {"smiles": "O=[N+]([O-])c1cc([N+](=O)[O-])c(Nc2ccccn2)c([N+](=O)[O-])c1", "activation factor": "inactive: 0.701"},
      {"smiles": "Cc1c(NP(C)(=O)Oc2ccc(C(C)C)cc2)c(=O)n(-c2ccccc2)n1C", "note": "(centres undefined)", "activation factor": "inactive: 1.06"},
      {"smiles": "CCN(CC)CCCOC(=O)C(O)(c1ccccc1)c1ccccc1", "activation factor": "inactive: 1.03"},
      {"smiles": "CC(C)(C)c1ccc(OP(C)(=O)Nc2ccc(SC(F)(F)F)cc2)cc1", "note": "(centres undefined)", "activation factor": "inactive: 1.03"},
      {"smiles": "Cc1cccc(C)c1OP(C)(N)=O", "note": "(centres undefined)", "activation factor": "inactive: 1.05"},
      {"smiles": "O=[N+]([O-])c1cc([N+](=O)[O-])c(Nc2cccnc2)c([N+](=O)[O-])c1", "activation factor": "inactive: 0.743"},
      {"smiles": "Cc1cc(C)cc(OP(C)(N)=O)c1", "note": "(centres undefined)", "activation factor": "inactive: 1.3"},
      {"smiles": "COc1ccccc1OP(C)(=O)Nc1cc(Cl)ccc1C", "note": "(centres undefined)", "activation factor": "inactive: 1.09"},
      {"smiles": "COc1ccc(OP(C)(=O)Nc2cccc(F)c2)cc1", "note": "(centres undefined)", "activation factor": "inactive: 0.99"},
      {"smiles": "COc1ccccc1OP(C)(=O)Nc1ccc(C)cc1", "note": "(centres undefined)", "activation factor": "inactive: 1.01"},
      {"smiles": "Cc1ccc(NP(C)(=O)Oc2ccccc2)c(C)c1", "note": "(centres undefined)", "activation factor": "inactive: 0.962"},
      {"smiles": "CCOC(=O)c1ccc(NP(C)(=O)Oc2ccccc2)cc1", "note": "(centres undefined)", "activation factor": "inactive: 0.951"},
      {"smiles": "CP(=O)(Nc1ccccc1Br)Oc1ccccc1", "note": "(centres undefined)", "activation factor": "inactive: 0.912"},
      {"smiles": "COc1ccccc1OP(C)(=O)Nc1ccccc1", "note": "(centres undefined)", "activation factor": "inactive: 1.14"},
      {"smiles": "CP(=S)(Nn1cnnc1)Oc1ccccc1", "note": "(centres undefined)", "activation factor": "inactive: 0.899"},
      {"smiles": "CCc1ccc(OP(C)(=O)N2CCN(c3ccc([N+](=O)[O-])cc3)CC2)cc1", "note": "(centres undefined)", "activation factor": "inactive: 0.978"},
      {"smiles": "CP(=O)(NC(=O)Nc1ccccc1)Oc1ccccc1", "note": "(centres undefined)", "activation factor": "inactive: 1.11"},
      {"smiles": "Cc1cc(C)cc(OP(C)(=O)Nc2ccc(SC(F)(F)F)cc2)c1", "note": "(centres undefined)", "activation factor": "inactive: 0.854"},
      {"smiles": "CP(=O)(Nc1ccc(SC(F)(F)F)cc1)Oc1ccc(Cl)cc1", "note": "(centres undefined)", "activation factor": "inactive: 1.08"},
      {"smiles": "Cc1cccc(C)c1OP(C)(=O)Nc1ccc(SC(F)(F)F)cc1", "note": "(centres undefined)", "activation factor": "inactive: 0.947"}
    ]}
  ]
}
